The record followed here is paper PMC11489056, “Molecular mechanism of a triazole-containing inhibitor of Mycobacterium tuberculosis DNA gyrase” (iScience, 2024).

Amino acid sequences for entries named in this document (tags omitted).
UniProt P0AES4, whole entry: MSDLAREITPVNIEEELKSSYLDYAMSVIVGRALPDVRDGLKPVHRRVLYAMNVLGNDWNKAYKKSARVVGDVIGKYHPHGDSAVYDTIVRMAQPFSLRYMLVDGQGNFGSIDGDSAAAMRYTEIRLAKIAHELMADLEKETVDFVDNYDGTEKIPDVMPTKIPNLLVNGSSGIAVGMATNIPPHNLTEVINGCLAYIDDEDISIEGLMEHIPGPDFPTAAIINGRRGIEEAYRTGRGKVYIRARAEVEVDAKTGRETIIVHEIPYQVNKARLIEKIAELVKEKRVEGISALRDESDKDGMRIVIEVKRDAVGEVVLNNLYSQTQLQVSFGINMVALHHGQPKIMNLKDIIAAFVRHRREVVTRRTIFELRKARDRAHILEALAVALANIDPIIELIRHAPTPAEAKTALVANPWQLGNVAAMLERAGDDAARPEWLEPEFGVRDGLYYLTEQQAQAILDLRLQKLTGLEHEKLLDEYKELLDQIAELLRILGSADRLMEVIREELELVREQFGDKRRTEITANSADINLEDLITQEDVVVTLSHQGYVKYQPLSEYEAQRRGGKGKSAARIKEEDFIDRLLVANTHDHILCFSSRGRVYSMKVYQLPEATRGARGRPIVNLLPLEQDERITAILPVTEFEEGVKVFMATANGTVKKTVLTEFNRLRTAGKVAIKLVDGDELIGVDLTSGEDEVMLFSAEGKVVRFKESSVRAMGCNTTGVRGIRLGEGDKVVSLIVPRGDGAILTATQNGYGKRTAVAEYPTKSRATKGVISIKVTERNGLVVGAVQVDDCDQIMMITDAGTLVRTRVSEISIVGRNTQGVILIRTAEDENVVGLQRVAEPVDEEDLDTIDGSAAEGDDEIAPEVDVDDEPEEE

This assay addresses wild-type E. coli DNA gyrase (Escherichia coli, UniProt P0AES4+P0AES6). The class given is biochemical. The settings on record: 60 min.

Take `COc1ccc2nccc(-n3cc(CCNCc4ccc5c(c4)NC(=O)CS5)nn3)c2n1` [BDM71403 (10a)]: the “IC50 for E. coli wild-type gyrase lower than that for the Mtb gyrase” value was 25 fold.
